Laboratory results from patent US9932349B2 (priority 2000, dated 2018).

Sequences of proteins named here, by UniProt entry; tags and fusion partners are left off. Residues count along the entry.
UniProt P41144, whole entry: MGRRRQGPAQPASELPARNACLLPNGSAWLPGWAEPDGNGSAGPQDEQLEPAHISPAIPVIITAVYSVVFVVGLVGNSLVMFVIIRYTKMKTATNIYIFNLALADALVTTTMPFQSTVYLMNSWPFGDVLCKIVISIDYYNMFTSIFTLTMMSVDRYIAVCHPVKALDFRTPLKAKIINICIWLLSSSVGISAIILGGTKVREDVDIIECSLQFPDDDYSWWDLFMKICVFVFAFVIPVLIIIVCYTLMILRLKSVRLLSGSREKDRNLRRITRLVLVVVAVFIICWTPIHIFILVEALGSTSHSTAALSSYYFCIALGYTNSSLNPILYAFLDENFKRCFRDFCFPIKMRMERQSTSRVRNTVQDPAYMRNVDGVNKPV
UniProt A0ACM8Q262, 1-400: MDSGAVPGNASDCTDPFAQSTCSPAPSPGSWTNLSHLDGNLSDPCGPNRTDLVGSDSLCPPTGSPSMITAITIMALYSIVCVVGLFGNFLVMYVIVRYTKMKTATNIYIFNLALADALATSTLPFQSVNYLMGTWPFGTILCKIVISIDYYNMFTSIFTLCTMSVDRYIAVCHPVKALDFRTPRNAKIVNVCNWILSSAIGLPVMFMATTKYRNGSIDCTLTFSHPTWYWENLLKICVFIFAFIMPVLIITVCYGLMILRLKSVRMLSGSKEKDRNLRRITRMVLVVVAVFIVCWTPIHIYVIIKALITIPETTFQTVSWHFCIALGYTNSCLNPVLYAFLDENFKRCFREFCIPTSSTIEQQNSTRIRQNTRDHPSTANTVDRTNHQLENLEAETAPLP
UniProt P35372, whole entry: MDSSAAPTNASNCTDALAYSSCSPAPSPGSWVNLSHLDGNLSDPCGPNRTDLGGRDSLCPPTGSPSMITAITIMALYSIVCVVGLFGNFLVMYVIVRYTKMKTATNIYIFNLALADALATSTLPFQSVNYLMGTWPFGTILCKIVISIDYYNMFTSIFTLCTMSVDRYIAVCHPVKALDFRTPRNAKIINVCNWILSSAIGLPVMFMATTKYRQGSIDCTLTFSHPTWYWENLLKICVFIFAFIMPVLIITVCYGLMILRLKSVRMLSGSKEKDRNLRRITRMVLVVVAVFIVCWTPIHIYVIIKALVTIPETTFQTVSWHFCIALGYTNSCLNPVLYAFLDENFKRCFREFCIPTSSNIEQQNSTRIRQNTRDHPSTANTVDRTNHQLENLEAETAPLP
UniProt P41145, whole entry: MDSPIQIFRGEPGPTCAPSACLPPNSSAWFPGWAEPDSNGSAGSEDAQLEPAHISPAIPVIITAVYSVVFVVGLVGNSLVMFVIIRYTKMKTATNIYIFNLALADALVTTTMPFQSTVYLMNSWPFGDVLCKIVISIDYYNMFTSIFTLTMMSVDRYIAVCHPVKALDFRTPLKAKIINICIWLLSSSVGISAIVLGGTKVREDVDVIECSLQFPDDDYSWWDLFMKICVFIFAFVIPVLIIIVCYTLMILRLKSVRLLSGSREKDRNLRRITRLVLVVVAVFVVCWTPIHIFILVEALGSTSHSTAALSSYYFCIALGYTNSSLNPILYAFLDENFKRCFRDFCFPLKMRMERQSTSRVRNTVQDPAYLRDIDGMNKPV

Experiments:
κ opioid receptor = κ opioid receptor (Cavia porcellus, UniProt P41144); assay: opioid receptor binding in guinea pig brain, [3H]U69,593; details: read-out: [3H] U69,593 (κ), Table 4 other series
δ opioid receptor = δ opioid receptor (Cavia porcellus, UniProt A0A286XTF2); assay: opioid receptor binding in guinea pig brain, [3H]Naltrindole; details: read-out: [3H] Naltrindole (δ), Table 4 other series
μ opioid receptor = μ opioid receptor (Cavia porcellus, UniProt A0ACM8Q262); assay: opioid receptor binding in guinea pig brain, [3H]DAMGO; details: read-out: [3H] DAMGO (μ), Table 4 other series
human μ opioid receptor = human μ opioid receptor (Homo sapiens, UniProt P35372); assay: binding to cloned human receptor in CHO cell membranes, [3H]DAMGO; details: read-out: [3H] DAMGO (μ); Table 4 other series; marked a: chinese hamster ovary
human δ opioid receptor = human δ opioid receptor (Homo sapiens, UniProt P41143); assay: binding to cloned human receptor in CHO cell membranes, [3H]Naltrindole; details: read-out: [3H] Naltrindole (δ); Table 4 other series; marked a: chinese hamster ovary
human κ opioid receptor = human κ opioid receptor (Homo sapiens, UniProt P41145); assay: binding to cloned human receptor in CHO cell membranes, [3H]U69,593; details: read-out: [3H] U69,593 (κ); Table 4 other series; marked a: chinese hamster ovary

| Compound | Ki (κ opioid receptor) [nM] | Ki (δ opioid receptor) [nM] | Ki (μ opioid receptor) [nM] | Ki (human μ opioid receptor) [nM] | Ki (human δ opioid receptor) [nM] | Ki (human κ opioid receptor) [nM] |
| --- | --- | --- | --- | --- | --- | --- |
| NC(=O)c1ccc2c3c1O[C@H]1c4[nH]c5ccccc5c4C[C@@]4(O)[C@@H](C2)N(CC2CC2)CC[C@]314 | 99 | 0.33 | 47 | – | – | – |
| O=CNc1ccc2c3c1OC1C(=O)CCC4(O)C(C2)N(CC2CC2)CCC314 (single isomer, unassigned) | – | – | – | 4.1 | 280 | 2.3 |
| CNC(=O)c1ccc2c3c1O[C@H]1[C@@H](O)C=C[C@H]4[C@@H](C2)N(C)CC[C@@]341 | > 10000 | > 10000 | – | – | – | – |
